## scFv variants of Ab-91 (heavy chain) against a SARS-CoV-2 spike peptide

Data: MIT Lincoln Laboratory AlphaSeq set, Engelhart et al. 2022, doi:10.1038/s41597-022-01779-4, as distributed in FLAb.

Antigen: PDVDLGDISGINAS, a 14-residue peptide of the SARS-CoV-2 spike HR2 region.

Each scFv is VL, a (GGGGS)3 linker, VH, as in the parent Ab-91, and differs from it in the CDRs of the heavy chain only.
VL: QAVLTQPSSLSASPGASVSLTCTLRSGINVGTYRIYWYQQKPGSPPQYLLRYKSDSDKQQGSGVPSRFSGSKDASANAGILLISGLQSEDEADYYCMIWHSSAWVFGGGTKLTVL
VH: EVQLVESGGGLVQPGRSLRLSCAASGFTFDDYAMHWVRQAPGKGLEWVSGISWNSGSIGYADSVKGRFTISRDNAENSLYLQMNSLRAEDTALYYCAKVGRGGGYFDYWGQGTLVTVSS

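In library AAYL51, one, two or three CDR residues were substituted; doubles and triples were drawn at random. In AlphaSeq, yeast of one mating type display the scFv and yeast of the other type display the target. Pairs that bind mate more often; barcode pairs of the diploids are counted by sequencing. The ratio of observed to expected reads was calibrated, replicate by replicate, on BCL2-family standards whose Kd was known from biolayer interferometry. Mating was done three times.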

Changes read parent residue, position, new residue, counted from the first residue of the VH shown.
Affinities are written as log10 Kd with Kd in nM; a lower number is a better binder.
Replicates are averaged; those with no signal do not enter the mean.
A pair that was not seen in that replicate is written "n.d."; this usually means weak binding, but a binder can also be missed.

changes	log10 Kd, replicates	log10 Kd (nM), mean	empty controls
Y32H+D62N+Y105Q	2.36 / 2.17 / 2.05	2.19	7/9 (4.56)
Y32Q+D62V+R101Y	n.d. / n.d. / n.d.	n.d.	1/9 (3.28)
F29T+M34T+Y105K	4.73 / 5.18 / n.d.	4.96	0/9
S52K+I58K+F106Q	n.d. / n.d. / n.d.	n.d.	0/9
M34I+Y60E+R101K	n.d. / n.d. / n.d.	n.d.	1/9 (3.82)
G26M+I58A+V64W	n.d. / n.d. / n.d.	n.d.	0/9
Y32G+F106D+Y108N	3.78 / n.d. / n.d.	3.78	0/9
Y32V+A33R+G56H	5.60 / 6.40 / n.d.	6.00	1/9 (5.94)
G100Y	1.79 / 1.84 / 1.22	1.62	3/9 (4.24)
G50C+V99W+R101K	n.d. / n.d. / n.d.	n.d.	1/9 (4.36)
G59I+G104Q+D107R	n.d. / n.d. / n.d.	n.d.	0/9
S63V+V64L+V99D	n.d. / n.d. / n.d.	n.d.	0/9
F27M+G103T	2.88 / 3.31 / 3.22	3.14	3/9 (4.18)
D31W+Y32F+G50P	n.d. / n.d. / n.d.	n.d.	0/9
G59I+S63Q+G102I	n.d. / n.d. / n.d.	n.d.	0/9
H35D+W53I+Y108T	n.d. / n.d. / n.d.	n.d.	2/9 (4.31)
F27R+I51H	n.d. / n.d. / 5.33	5.33	3/9 (5.15)
D31S+I51G+S52N	n.d. / 4.52 / 4.67	4.60	3/9 (5.46)
D31E+H35Y+D62W	n.d. / 5.02 / n.d.	5.02	1/9 (4.30)
A33G+K65V+G102R	2.62 / 3.09 / 3.54	3.09	4/9 (4.50)
S55T+I58C+V99H	4.14 / n.d. / n.d.	4.14	1/9 (3.42)
D30P+H35K+G56S	5.70 / 4.56 / n.d.	5.13	5/9 (4.77)
F29D+G56M+G102N	n.d. / 5.57 / 3.87	4.72	4/9 (4.69)
G56E+K65V+Y105M	1.40 / 1.55 / 1.81	1.59	4/9 (4.49)
S52H+A61V+G103I	n.d. / n.d. / n.d.	n.d.	1/9 (4.91)
K65L	4.37 / 4.63 / 4.92	4.64	5/9 (4.71)
D30Q+N54E+V64M	n.d. / 3.83 / n.d.	3.83	2/9 (5.01)
G26R+F29G+R101V	n.d. / n.d. / n.d.	n.d.	2/9 (3.60)
G50S+S63L	n.d. / n.d. / n.d.	n.d.	3/9 (4.76)
T28C+M34A+Y105A	2.06 / 2.63 / 2.79	2.49	0/9
G26R+W53K+G104H	5.15 / n.d. / 5.03	5.09	4/9 (4.08)
F29E+I58G+G59H	n.d. / n.d. / n.d.	n.d.	2/9 (4.34)
G26S+N54E+D62Y	n.d. / n.d. / n.d.	n.d.	1/9 (3.10)
Y32V+G50Y+S63C	5.14 / 4.28 / n.d.	4.71	5/9 (4.69)
F27D+S57A+G102A	n.d. / n.d. / n.d.	n.d.	1/9 (4.41)
N54V+G59R+S63V	n.d. / n.d. / n.d.	n.d.	1/9 (3.76)
A33H+N54Y+Y60H	n.d. / n.d. / n.d.	n.d.	4/9 (4.84)
T28L+I51Y+G103F	5.11 / n.d. / n.d.	5.11	3/9 (5.86)
F29P+D107A+Y108F	n.d. / n.d. / n.d.	n.d.	0/9
G26D+F29S+Y60F	3.71 / n.d. / n.d.	3.71	2/9 (4.64)
I51D+S57A+F106T	n.d. / 5.77 / n.d.	5.77	1/9 (4.57)
F29G+S63H+V99H	4.45 / n.d. / n.d.	4.45	1/9 (5.20)
A33Y+G56I+Y60M	3.58 / n.d. / n.d.	3.58	1/9 (4.17)
D30F+S57D+D107V	1.50 / 1.25 / 1.14	1.30	1/9 (5.18)
G50D+S55W+A61E	n.d. / n.d. / n.d.	n.d.	0/9
Y32M+H35Q+G56V	n.d. / n.d. / n.d.	n.d.	1/9 (4.42)

The closing 7 entries, repeated:

changes	log10 Kd, replicates	log10 Kd (nM), mean	empty controls
G26D+F29S+Y60F	3.71 / n.d. / n.d.	3.71	2/9 (4.64)
I51D+S57A+F106T	n.d. / 5.77 / n.d.	5.77	1/9 (4.57)
F29G+S63H+V99H	4.45 / n.d. / n.d.	4.45	1/9 (5.20)
A33Y+G56I+Y60M	3.58 / n.d. / n.d.	3.58	1/9 (4.17)
D30F+S57D+D107V	1.50 / 1.25 / 1.14	1.30	1/9 (5.18)
G50D+S55W+A61E	n.d. / n.d. / n.d.	n.d.	0/9
Y32M+H35Q+G56V	n.d. / n.d. / n.d.	n.d.	1/9 (4.42)

Three control strains display no target. For library AAYL51, 21% of the pairings with them gave a signal, with a median of 4.54 and one signal in twenty below 3.26, so weak values seen in few replicates may be background. Also given: how often the same scFv was detected with the empty control strains, with their mean in brackets.